Assay results as given in ChEMBL document CHEMBL1287787, “Design and synthesis of disubstituted thiophene and thiazole based inhibitors of JNK” (Bioorg Med Chem Lett, 2010).
pIC50: −log10 of the molar value.

Amino acid sequences for entries named in this document (tags omitted). A change or cut given only in a name is not applied to a line headed by its entry.
UniProt P45983: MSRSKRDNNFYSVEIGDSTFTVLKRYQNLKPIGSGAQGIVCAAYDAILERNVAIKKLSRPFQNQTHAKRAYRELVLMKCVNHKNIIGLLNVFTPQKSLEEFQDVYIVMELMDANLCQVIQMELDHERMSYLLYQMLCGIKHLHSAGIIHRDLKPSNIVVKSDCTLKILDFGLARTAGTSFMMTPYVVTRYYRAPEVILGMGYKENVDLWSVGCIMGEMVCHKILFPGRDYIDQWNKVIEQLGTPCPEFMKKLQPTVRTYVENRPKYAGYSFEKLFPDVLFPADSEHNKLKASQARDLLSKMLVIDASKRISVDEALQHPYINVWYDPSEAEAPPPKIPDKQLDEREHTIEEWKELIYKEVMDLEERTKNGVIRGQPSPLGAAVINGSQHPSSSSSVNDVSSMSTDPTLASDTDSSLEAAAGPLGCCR
UniProt P53779: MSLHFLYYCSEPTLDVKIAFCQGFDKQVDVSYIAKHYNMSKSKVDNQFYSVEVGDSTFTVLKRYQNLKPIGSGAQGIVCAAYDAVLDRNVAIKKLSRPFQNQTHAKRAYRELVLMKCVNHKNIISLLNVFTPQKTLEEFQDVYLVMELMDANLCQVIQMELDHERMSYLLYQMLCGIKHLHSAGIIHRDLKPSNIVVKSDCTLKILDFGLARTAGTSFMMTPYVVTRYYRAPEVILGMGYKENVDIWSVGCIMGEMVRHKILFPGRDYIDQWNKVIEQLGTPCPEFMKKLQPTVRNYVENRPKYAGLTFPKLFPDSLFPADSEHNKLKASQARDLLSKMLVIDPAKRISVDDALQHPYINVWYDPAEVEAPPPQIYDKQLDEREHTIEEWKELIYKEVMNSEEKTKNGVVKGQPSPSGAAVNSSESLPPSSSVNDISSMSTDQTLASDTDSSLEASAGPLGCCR

Legend:
[1] = biological target: Mitogen-activated protein kinase 8 (Homo sapiens, UniProt P45983); experiment: Inhibition of recombinant JNK1 after 60 mins by TR-FRET assay
[2] = biological target: Mitogen-activated protein kinase 10 (Homo sapiens, UniProt P53779); experiment: Inhibition of recombinant JNK3 after 60 mins by TR-FRET assay

Work on `COc1ccc(CC(=O)Nc2ccsc2-c2ncco2)cc1` yielded a pIC50 [1] of 6.66 and a pIC50 [2] of 6.10.
For `COC(=O)c1sccc1NC(=O)Cc1cccs1`, the pIC50 [2] was 5.66.
`O=C(Cc1cccc2ccccc12)Nc1ccsc1-c1cc[nH]n1` showed a pIC50 [2] of 5.44.
For `Cc1cc(-c2sccc2NC(=O)Cc2cccc3ccccc23)n[nH]1`, the pIC50 [1] was 5.47 and the pIC50 [2] was 5.03.
